Literature values in article PMC10803328 (Scientific Reports, 2024).

The chains behind the UniProt entries cited, without tags or fusion partners. Where a name states a change or a piece, a line headed by the entry shows the natural chain unless it says otherwise.
UniProt P23415: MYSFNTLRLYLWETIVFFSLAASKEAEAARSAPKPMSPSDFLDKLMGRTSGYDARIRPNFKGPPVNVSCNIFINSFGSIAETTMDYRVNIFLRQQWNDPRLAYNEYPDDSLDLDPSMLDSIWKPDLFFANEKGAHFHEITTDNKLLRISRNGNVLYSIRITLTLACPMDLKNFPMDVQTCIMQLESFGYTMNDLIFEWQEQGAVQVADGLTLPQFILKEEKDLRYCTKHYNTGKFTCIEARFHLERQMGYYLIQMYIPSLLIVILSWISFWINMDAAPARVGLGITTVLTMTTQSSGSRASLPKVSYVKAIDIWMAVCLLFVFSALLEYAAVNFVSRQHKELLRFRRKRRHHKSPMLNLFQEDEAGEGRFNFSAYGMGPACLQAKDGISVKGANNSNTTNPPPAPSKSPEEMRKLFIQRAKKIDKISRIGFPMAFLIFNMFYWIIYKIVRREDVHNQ
UniProt P36544: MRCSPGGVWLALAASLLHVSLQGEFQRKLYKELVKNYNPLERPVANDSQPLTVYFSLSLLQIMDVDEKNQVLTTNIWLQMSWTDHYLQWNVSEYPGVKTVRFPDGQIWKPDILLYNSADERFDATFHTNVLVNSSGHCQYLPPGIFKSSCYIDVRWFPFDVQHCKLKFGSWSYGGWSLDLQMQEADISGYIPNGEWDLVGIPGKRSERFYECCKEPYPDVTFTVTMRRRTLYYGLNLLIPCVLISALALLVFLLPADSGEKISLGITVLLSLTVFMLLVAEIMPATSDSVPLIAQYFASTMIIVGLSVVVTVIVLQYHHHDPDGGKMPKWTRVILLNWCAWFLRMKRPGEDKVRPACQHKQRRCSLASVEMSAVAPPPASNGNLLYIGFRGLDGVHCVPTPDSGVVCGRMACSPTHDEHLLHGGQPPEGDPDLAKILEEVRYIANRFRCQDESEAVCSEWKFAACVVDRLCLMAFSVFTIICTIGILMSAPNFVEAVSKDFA

Target: PSAM^4-GlyR (Homo sapiens, UniProt P23415+P36544, L131G/Q139L/Y217F)
Set-up: expressed in transfected cells; method as in PMID 30872534, PMID 24556591, PMID 36279419
Conditions: in vitro binding assay, literature; cited from earlier work

In the case of `c1cnc2cc3c(cc2n1)[C@@H]1CNC[C@H]3C1` [Varenicline, varenicline], the Ki is listed as 1.3 nM.
